Reference: ChEMBL document CHEMBL3351781, “Assessment of antidotal efficacy of cholinesterase reactivators against paraoxon: In vitro reactivation kinetics and physicochemical properties” (2014)

How the values were obtained:
[1] = Dissociation constant, pKa of the compound by Albert and Sergeant/UV-visible spectrophotometry method
[2] = Dissociation constant, pKa of the compound by non-linear regression/UV-VIS absorption spectra analysis

Row | SMILES | pKa [1] | pKa [2]
1 | NC(=O)c1cc[n+](Cc2ccc(C[n+]3ccc(/C=N/O)cc3)cc2)cc1.[Br-].[Br-] | 8.25 | 8.1
2 | NC(=O)c1cc[n+](Cc2cccc(C[n+]3ccc(/C=N/O)cc3)c2)cc1.[Br-].[Br-] | 8.02 | 8.11
3 | O/N=C/c1cc[n+](CCC[n+]2ccc(/C=N/O)cc2)cc1.[Br-].[Br-] | 8.19 | 7.06
4 | O/N=C\c1cc[n+](Cc2ccccc2C[n+]2ccc(/C=N\O)cc2)cc1.[Br-].[Br-] | 8.29 | 7.4
5 | C[n+]1cccc(/C=N/O)c1.[Br-] | 9.53 | –
6 | O/N=C/c1cc[n+](Cc2ccc(C[n+]3ccc(/C=N/O)cc3)cc2)cc1.[Br-].[Br-] | 8.3 | 7.58
7 | CC(=O)/C(C)=N/O | 9.5 | –
8 | NC(=O)c1cc[n+](CCCC[n+]2ccc(/C=N/O)cc2)cc1.[Br-].[Br-] | 8.55 | 8.28
9 | C[n+]1ccc(/C=N/O)cc1.[Br-] | 8.36 | –
10 | NC(=O)c1cc[n+](Cc2ccccc2C[n+]2ccc(/C=N/O)cc2)cc1.[Br-].[Br-] | 8.13 | 7.97
